Key:
[1] = test system: nicotinic receptors (nAChRs); conditions: low concentrations (pM-nM); Lawrence et al. 2014; cited from earlier work
[2] = test system: NG108-15 cells expressing α4β2-nAChRs; test: Cell stress (ROS) assay, α4β2-nAChR-transfected differentiated NG108-15 cells treated with Aβ1-42; type: cell-based, rodent; conditions: FIG. 4, p<0.0001
Description: (§1) In Vitro Neuronal Models. The studies were, performed on the NG108-15 rodent hybrid neuroblastoma cell line and primary hippocampal neuron cultures. The cell line can be differentiated, yielding axonal neurites with presynaptic-like varicosities that have the ability to release acetylcholine via exocytosis in response to stimulation. […] The primary hippocampal neuron cultures provide a physiologically relevant model. Non-limiting examples of results are shown in FIGS. 4, 5A-5B, 8A-6B, 7A-7B, 8, 9A-9B, 10A-10B, 13A-13,C and 14A-14B.
(§2) Neuroblestoma Clonal Cell Culture and Transfection. Rodent hybrid neuroblastoma NG108-15 cells were used as a model nerve cell system allowing reconstitution with defined target receptors for Aβ. The cells were cultured in Dulbecco's modified Eagle's medium (DMEM) containing 15% fetal bovine serum (FBS) and differentiated in the presence of reduced serum (1% FBS) and 1 mM dibutyryl cyclic AMP for 72 h, Expression vectors (pcDNA3.1) containing mouse sequences for α4 and β2 nAChR subunits (1:4 ratio respectively) were transiently transfected into the cells using FuGENE HD (ThernioFisher, catalog #PRE2311) for 48 h. Mock-transfected NG108-15 cells, exposed only to FuGENE HO and not plasmid DNA, were used as controls.
Cell Stress Assays. Cells were plated, differentiated and treated for 3 days poor to assay. Cell count and fluorescence intensity of reactive oxygen species (ROS)-positive cells were assessed as a means to measure cellular oxidative stress using an Image-IT® LIVE Green Reactive Oxygen Species Detection Kit. In brief, the cells were treated for three days for NG108-15 cultures end five or ten days for primary hippocampal neuronal cultures. The media was changed every day, thus replenishing with fresh Aβ every 24 h, unless otherwise noted. Thereafter, the cells were incubated with carboxy-H2DCFDA (component A) at 37° C. for 30 min. During the last 5 min of incubation, 2 μg/ml of HOECHST stain (component B) was added to assess, in parallel, the integrity of the cell nuclei. […]

hippocampal slices = conditions: FIG. 11, from Lawrence et al. 2014; cited from earlier work
[3] = test system: nicotinic receptors (nAChRs); test: Ca2+ imaging / neuromodulator activity at nicotinic receptors (receptor subtype not specified in the statement); type: cell-based; conditions: compared with full-length β-amyloid
Description: Ca^2+ Imaging Fluo-4, a Ca^2+ indicator dye, was loaded into cells on coverslips and visualization of [Ca^2+] was done via a Nikon PCM 2000 Cameleon AOTF confocal microscope. Each time-series was normalized to baseline fluorescence intensity at time zero (F/F0). After recording a baseline image series, each treatment was perfused over cells for 2.5 minutes or 15 minutes and quantification of relative fluorescence changes was analyzed through imageJ.

[4] = test system: primary hippocampal neurons; test: Cell stress (ROS) assay in primary hippocampal neuron cultures; type: cell-based, mouse; conditions: 1 μM with 1 μM Aβ1-42, 5 or 10 days; p<0.0001
[5] = test system: endogenously produced Aβ (from transfected APP); test: Cell stress (ROS) assay, endogenously produced Aβ from transfected APP; type: cell-based; conditions: FIG. 8
Description: Cell Stress Assays. Cells were plated, differentiated and treated for 3 days poor to assay. Cell count and fluorescence intensity of reactive oxygen species (ROS)-positive cells were assessed as a means to measure cellular oxidative stress using an Image-IT® LIVE Green Reactive Oxygen Species Detection Kit. In brief, the cells were treated for three days for NG108-15 cultures end five or ten days for primary hippocampal neuronal cultures. The media was changed every day, thus replenishing with fresh Aβ every 24 h, unless otherwise noted. Thereafter, the cells were incubated with carboxy-H2DCFDA (component A) at 37° C. for 30 min. During the last 5 min of incubation, 2 μg/ml of HOECHST stain (component B) was added to assess, in parallel, the integrity of the cell nuclei. The cells were washed twice with HBS and visualized using an Olympus IX81 epifluorescence microscope at excitation/emission of 495) 529 nm (ROS) and 350/461 nm (HOECHST), respectively. Exemplary results are shown in FIGS. 4, 5A, 6A, 7A-7B, 8, and 9A-9B.

[6] = test system: mock-transfected NG108-15 cells; test: Cell death (apoptosis) TUNEL assay, NG108-15 cells without nAChRs; type: cell-based; conditions: nM-μM co-treatment over four days with 1 μM Aβ1-42; FIG. 14B; trend of greater reduction at μM
Description: as §2

[7] = test system: primary hippocampal neurons; test: Cell survival (cell counts), primary hippocampal neurons; type: cell-based, mouse; conditions: 1 μM with 1 μM Aβ1-42; FIG. 10B; p<0.0001
Description: (§3) Cell Survival. Cell survival was determined by counting cells everyday for 7 or 10 days of treatment. For each condition, all cells in 5 random fields of view were counted and averaged. Percent cell death was calculated based on daily cell counts as a proportion of starting cell count numbers (i.e. day 0).

[8] = test system: mock-transfected NG108-15 cells; test: Cell stress (ROS) assay, mock-transfected NG108-15 cells (absent nAChRs) treated with μM Aβ1-42; type: cell-based, rodent; conditions: co-treatment with nM-μM concentrations and 1 μM Aβ1-42; FIG. 6A; p<0.0001
Description: as §1
as §2, with “Mock-transfected NG108-15 cells, exposed only to FuGENE HO and not plasmid DNA, were used as controls.” left out
Cell Stress Assays. […] Cell count and fluorescence intensity of reactive oxygen species (ROS)-positive cells were assessed as a means to measure cellular oxidative stress using an Image-IT® LIVE Green Reactive Oxygen Species Detection Kit. […]

[9] = test system: NG108-15 cells expressing α4β2-nAChRs; test: Cell survival (daily cell counts), NG108-15 cells with α4β2-nAChRs; type: cell-based, rodent
Description: Neuroblestoma Clonal Cell Culture and Transfection. Rodent hybrid neuroblastoma NG108-15 cells were used as a model nerve cell system allowing reconstitution with defined target receptors for Aβ. […] Mock-transfected NG108-15 cells, exposed only to FuGENE HO and not plasmid DNA, were used as controls.
as §3

[10] = test system: 5XFAD (familial Alzheimer's disease) APP mice; test: Contextual fear memory in 5XFAD APP mice; type: in vivo, mouse; conditions: FIG. 12
model neuronal cultures = test: Excitotoxicity in model neuronal cultures; type: cell-based; conditions: only high levels (μM)

DAEFRHDSGYEVHHQ [N-Aβ fragment]
Effectiveness as neuromodulator versus full-length Aβ [1]: nearly twice as effective as full-length Aβ
Aβ1-42-induced ROS, priming (pre-treatment) ([2]; 100 nM introduced one day prior to 100 nM Aβ1-42): significantly reduced Aβ1-42-induced ROS
Aβ1-42-induced oxidative stress (ROS), co-treatment ([2]; co-treatment at similar or higher concentrations than daily 100 nM Aβ1-42): able to prevent Aβ1-42-induced oxidative stress
Aβ1-42-induced ROS, rescue treatment ([2]; introduced 1 day after Aβ1-42 (100 nM each)): attenuated ROS to a significant extent
Aβ-linked deficits in synaptic plasticity (LTP) (hippocampal slices): protects against Aβ-linked deficits in synaptic plasticity
Agonist-like action on nicotinic receptors in Ca2+ imaging studies [3]: highly potent and more effective than full-length β-amyloid
Aβ1-42-induced ROS in primary neurons, co-treatment [4]: reduced the levels of ROS down to untreated (baseline) levels
Oxidative stress (ROS) induced by endogenously produced Aβ [5]: protects against cellular toxicity
Aβ1-42-induced DNA-fragmentation in absence of nAChRs [6]: reduced DNA-fragmentation compared to Aβ1-42 alone
Aβ1-42-induced cell death over 10-day treatments, co-treatment [7]: protected primary hippocampal neurons against β1-42-induced cell death
Aβ1-42-induced oxidative stress (ROS) in absence of nAChRs [8]: reduced this oxidative stress compared to Aβ1-42 alone
Aβ1-42-induced cell death at 7 days, co-treatment ([9]; 100 nM co-treatment with 100 nM Aβ1-42, FIG. 10A, p<0.0001): able to fully protect against Aβ1-42-induced cell death
Toxicity of peptide alone (cell counts) ([9]; FIG. 10A-10B): non-toxic
Aβ-linked deficits in contextual fear memory [10]: protects against Aβ-linked deficits in contextual fear memory
Protection against excitotoxicity (model neuronal cultures): protected against excitotoxicity
